Experimental findings from PubChem BioAssay AID540303 (National Center for Advancing Translational Sciences (NCATS), 2011) are described below.

Only a part is listed here, and it is no random draw. Records with an inconclusive call do not appear. Some salts and complexes are drawn in separate pieces, as the source files them; their charges need not balance. The source made the active and inactive calls. The call rests on the fitted dose curve; in most records, active means well fitted inhibition curve with a large enough effect; inconclusive means small, poorly fitted or top-dose-only effect; inactive means no such curve, though single readings can be large or run the other way; tested in mouse RAW 264.7 cells.
On the % scale 0 is the no-effect control and ±100 the full control effect.

This assay in a line: qHTS for Inhibitors of Cell Surface uPA Generation. Further: nearly all actives have a fitted effect of over 55% in size. Conditions: cell surface uPA generation assay; at 38.3 µM (top of the series). From the text: The overall objective of this project is to perform a quantitative high throughput screen (qHTS) to identify novel compounds that inhibit the generation of cell surface urokinase activity. The urokinase plasminogen activator (uPA) is one of the two primary endogenous systems that mediate plasminogen activation into plasmin. Members of this system, including uPA and its receptor (uPAR), are overexpressed in several malignant tumors. This system plays a major role in adhesion, migration, invasion and metastasis of cancer cells. Small molecule inhibitors of the uPA system will serve as probes to understand the molecular mechanisms of the uPA cascade and better understanding the microenvironmental circumstances that facilitate the activation of plasminogen by uPA, and finally may provide novel candidate agents for anticancer drug therapy.
[…] […] Upon inhibition of the uPA activation cascade, the subsequent cell surface uPA activity-dependent translocation of LF into the cytoplasm is inhibited. ATP-Lite is used to measure intracellular ATP concentrations, which remain increased if LF entry into the cytoplasm is inhibited. This validation assay was performed using a small set of validation compounds.
NIH Chemical Genomics Center [NCGC]
NIH Molecular Libraries Probe Centers Network [MLPCN]
Assay Submitter (PI): Thomas Bugge, National Institute of Dental and Craniofacial Research, NIH
Cultured RAW 264.7 were dispensed into 1536-well clear bottom, white walled tissue culture plates at a density of 4000 cells/well and were incubated overnight (12-16 h) at 37 C in a 5% CO2 incubator. Serially diluted compounds in 23 nl DMSO were added to cells. […] Compound and reagent-treated plates were incubated for 24 h at 37 C in a 5% CO2 incubator. Perkin Elmer ATPlitetrade mark 1 step (3 ul) was then added to each well. Luminescence was detected using a Perkin Elmer ViewLuxtrade mark plate reader.
1.Dispensing RAW 264.7 cells into 1536-well, white walled tissue culture plates at a density of 4000 cells/well (4 uL).
2.Incubation at 37 C in a 5% CO2 incubator overnight.
3.Serially diluting compounds (1:5 serial dilution; 0.0024 uM to […] final concentration) in 23 nl DMSO.
5.Incubating the compound and reagent-treated plates for 24 hours at 37 C in a 5% CO2 incubator.
6.Adding ATP-Lite (3 ul).
7.Reading plates by ViewLux with an exposure length of 5 seconds.
`O=C(NCC1(N2CCCCC2)CCCCC1)c1cccc(C(F)(F)F)c1`: the activity change, negative = inhibition was inactive: -5.08%.

Turning to `O=[N+]([O-])c1cc([N+](=O)[O-])c(NCC2CCS(=O)(=O)C2)c([N+](=O)[O-])c1` (stereo unspecified), the activity change, negative = inhibition was inactive: 9.63%. Under `CC(C)c1ccc(C(=O)NCC2(N3CCOCC3)CCCCC2)cc1` stands inactive: -5.4%; under `COc1ccc(NC2CCN(C(=O)OC(C)(C)C)CC2)cc1`, inactive: 12.2%.

With `CN1CCN(CCOC(=O)C(O)(c2ccccc2)c2ccccc2)CC1`, the activity change, negative = inhibition was inactive: -0.339%.

Take `O=C(NCC1(N2CCOCC2)CCCCC1)c1cc(=O)[nH]c2ccccc12`: the activity change, negative = inhibition is inactive: 3.98%. Under `COc1cc(C(=O)NCC2(N3CCCCC3)CCCCC2)ccc1OC(F)F` stands inactive: -2.8%; under `O=C(NCC1(N2CCCCC2)CCCCC1)c1ccc(OC(F)F)cc1`, inactive: 2.44%; under `CSc1ccc(C(=O)NCC2(N3CCOCC3)CCCCC2)cc1`, inactive: -1.44%. Under `O=C(NCC1(N2CCCCC2)CCCCC1)c1cccc([N+](=O)[O-])c1` stands inactive: 2.3%; under `N#CC1(Nc2ccccc2)CCN(CCc2ccccc2)CC1`, inactive: 3.47%. Then `CCN1CCC(Nc2ccc(Cl)cc2)CC1`, with inactive: 6.62%; and `COc1ccc2c(c1O)-c1c(O)c(OC)cc3c1[C@H](C2)[N+](C)(C)CC3.O=[N+]([O-])c1cc([N+](=O)[O-])c([O-])c([N+](=O)[O-])c1[O-]`, with inactive: -2.86%. For the compound `O=C(NCC1(N2CCCCC2)CCCCC1)c1cncc(Br)c1`, the activity change, negative = inhibition is inactive: 2.15%. Under `CN1CCC(Nc2cccc(F)c2)CC1` stands inactive: -6.15%; under `O=C(OC1CN2CCC1CC2)c1ccc([N+](=O)[O-])cc1` (stereo unspecified), inactive: -4%; under `CCCOc1ccc(C(=O)NCC2(N(C)C)CCCCC2)cc1OC`, inactive: 1.39%. For the compound `CN(C)c1cccc(C(=O)NCC2(N3CCCCC3)CCCCC2)c1`, the activity change, negative = inhibition was inactive: -1.37%. In the case of `O=[N+]([O-])c1cc([N+](=O)[O-])c(OC2CCCCC2O)c([N+](=O)[O-])c1` (stereo unspecified), the activity change, negative = inhibition was inactive: -0.538%. Under `COc1ccc(CN(CCCl)CCCl)cc1Cl` stands inactive: -2.13%. Then `CC(C)c1ccc(NC2CCN(C(=O)OC(C)(C)C)CC2)cc1`, with inactive: 1.21%; and `O=C(NCC1(N2CCOCC2)CCCCC1)c1cc(F)c(F)cc1Cl`, with inactive: -8.87%. Then `COc1cc(OC)c(C(=O)NCC2(N(C)C)CCCCC2)cc1OC`, with inactive: 1.08%. With `O=C(NCC1(N2CCOCC2)CCCCC1)c1cc2ccccc2o1`, the activity change, negative = inhibition is inactive: 9.9%. Under `Cc1cc(C)cc(N(C(=O)c2ccccc2)C2CCN(C(=O)OC(C)(C)C)CC2)c1` stands inactive: 2.43%; under `O=C(NCC1(N2CCCCC2)CCCCC1)c1ccc(Cl)nc1`, inactive: -0.693%.

For the compound `CCOC(=O)N1CCC(Nc2ccc(OC)cc2)CC1`, the activity change, negative = inhibition was inactive: 1.88%. With `O=C1C(O)=C([N+](=O)[O-])C(=O)C(O)=C1[N+](=O)[O-]`, the activity change, negative = inhibition was inactive: 4.84%. Turning to `COc1ccc(Cl)cc1C(=O)NCC1(N2CCOCC2)CCCCC1`, the activity change, negative = inhibition was inactive: 1.94%. For the compound `O=C(OC1CN2CCC1CC2)C1c2ccccc2Oc2ccccc21` (stereo unspecified), the activity change, negative = inhibition was inactive: 8.01%. On to `N#CC1(Nc2ccccc2)CCN(Cc2ccccc2)CC1`, for which the activity change, negative = inhibition is inactive: -7.88%.

As to `O=C(NCC1(N2CCCCC2)CCCCC1)c1ccc(Cl)s1`, the activity change, negative = inhibition is inactive: 3.92%. Under `O=C(NCC1(N2CCCCC2)CCCCC1)c1cccs1` stands inactive: -1.46%; under `O=C(NCC1(N2CCCCC2)CCCCC1)c1ccc(=O)[nH]c1`, inactive: 3.11%; under `CC(C)(C)OC(=O)N1CCC(N(C(=O)c2ccccc2)c2ccc(F)cc2)CC1`, inactive: -7.1%. Under `COc1ccc(C(=O)NCC2(N3CCCCC3)CCCCC2)c(OC)c1OC` stands inactive: -7.3%; under `COc1ccc(C(=O)NCC2(N3CCCCC3)CCCCC2)cc1`, inactive: 5.85%. Under `Cc1cccc(NC2(C#N)CCN(Cc3ccccc3)CC2)c1` stands inactive: 1.68%. `CSc1ccccc1C(=O)NCC1(N2CCCCC2)CCCCC1`: the activity change, negative = inhibition is inactive: 0.86%. Under `COc1cc(C(=O)NCC2(N(C)C)CCCCC2)ccc1OC(F)F` stands inactive: 2.37%. Turning to `CCOC(=O)N1CCC(Nc2cccc(C)c2)CC1`, the activity change, negative = inhibition was inactive: 14.4%. Under `CCOc1ccc(C)cc1CN(CCCl)CCCl` stands inactive: -8.13%; under `O=C1CCN(Cc2ccccc2)CC1`, inactive: 0.105%; under `CCOC(=O)N1CCC(Nc2ccc(F)cc2)CC1`, inactive: 7.16%. For the compound `O=C(NCC1(N2CCCCC2)CCCCC1)c1ccc(F)cc1`, the activity change, negative = inhibition was inactive: 2.82%. Under `CCCCOc1ccc(C(=O)NCC2(N3CCOCC3)CCCCC2)cc1` stands inactive: 1.41%.

On to `O=P1(N(CCCl)CCCl)SCCCS1`, for which the activity change, negative = inhibition is inactive: -2.16%. Then `CCN1CCC(Nc2cccc(F)c2)CC1`, with inactive: 2.35%; and `Cc1ccccc1NC1(C#N)CCN(Cc2ccccc2)CC1`, with inactive: 2.15%. Then `Cn1c(=O)[nH]cc(N(CCCl)CCCl)c1=O`, with inactive: 1.74%; and `CN(C)c1ccc(C(=O)NCC2(N3CCCCC3)CCCCC2)cc1`, with inactive: -3.92%. For `O=C(NCC1(N2CCCCC2)CCCCC1)c1ccco1`, the activity change, negative = inhibition is inactive: 3.46%.

As for `COc1cc(OC)cc(C(=O)NCC2(N3CCCCC3)CCCCC2)c1`, the activity change, negative = inhibition was inactive: -2.99%. Then `CC(=O)N(c1ccccc1)C1CCNCC1`, with inactive: -0.247%; and `Cc1ccc(NC2(C#N)CCN(Cc3ccccc3)CC2)cc1`, with inactive: 1.6%; and `Fc1ccccc1NC1CCN(Cc2ccccc2)CC1`, with inactive: -3.11%. Then `Cc1ccc(C(=O)NCC2(N3CCCCC3)CCCCC2)o1`, with inactive: -2.12%.

In the case of `CCC(CO)(C(=O)OC1CN2CCC1CC2)c1ccccc1` (stereo unspecified), the activity change, negative = inhibition is inactive: 11.2%. Then `COc1cccc(C(=O)N(c2cc(C)cc(C)c2)C2CCN(C(=O)OC(C)(C)C)CC2)c1`, with inactive: 5.95%. Under `COc1cc(OC)cc(C(=O)NCC2(N3CCOCC3)CCCCC2)c1` stands inactive: -4.67%. Under `CN1CCC(Nc2ccc(Cl)cc2)CC1` stands inactive: 3.32%; under `CN1CCC(Nc2ccc(F)c(Cl)c2)CC1`, inactive: -6.41%. `CCOc1ncccc1C(=O)NCC1(N2CCOCC2)CCCCC1`: the activity change, negative = inhibition is inactive: -2%. Then `CCCOc1ccc(C(=O)NCC2(N(C)C)CCCCC2)cc1`, with inactive: 5.55%; and `O=C(O)C1(Nc2ccccc2)CCN(Cc2ccccc2)CC1`, with inactive: -0.509%; and `CC(C)(C)OC(=O)N1CCC(Nc2ccccc2)CC1`, with inactive: 4.04%. On to `N/C(=N\O)c1c(N)no[n+]1[O-]`, for which the activity change, negative = inhibition is inactive: 1.66%. Under `CCOC(=O)N1CCC(Nc2ccc(C)cc2)CC1` stands inactive: 4.36%; under `O=C(O)c1cccc(Nc2c([N+](=O)[O-])cc([N+](=O)[O-])cc2[N+](=O)[O-])c1`, inactive: -0.24%.

As to `O=C(OC1CN2CCC1CC2)C1c2ccccc2C=Cc2ccccc21` (stereo unspecified), the activity change, negative = inhibition was inactive: -2.81%. Under `CCc1cc(C(=O)NCC2(N3CCCCC3)CCCCC2)sc1C` stands inactive: -3.8%; under `O=C(NCC1(N2CCOCC2)CCCCC1)c1cc(Br)ccc1Cl`, inactive: -4.63%; under `COc1cc(C(=O)NCC2(N3CCOCC3)CCCCC2)cc(OC)c1C`, inactive: -9.03%. Under `COc1ccc(C(=O)NCC2(N3CCOCC3)CCCCC2)cc1OC` stands inactive: -8.23%.

With `Cc1cc(N(CCCl)CCCl)ccc1C=O`, the activity change, negative = inhibition is inactive: -8.26%. Under `CCCN1CCC(Nc2cc(OC)cc(OC)c2)CC1` stands inactive: 0.127%. Under `c1ccc(CN2CCC(Nc3ccccc3)CC2)cc1` stands inactive: -0.098%; under `CN(C)C1(CNC(=O)c2cccc(C#N)c2)CCCCC1`, inactive: -6.07%; under `CC(C)(C)OC(=O)N1CCC(N(C(=O)c2ccccc2)c2ccc(Cl)cc2)CC1`, inactive: 1.97%. Under `N#Cc1ccc(C(=O)NCC2(N3CCCCC3)CCCCC2)cc1` stands inactive: 2.57%; under `CCOC(=O)C(CC)C1=NC(C)(C)Cc2ccccc21.O=[N+]([O-])c1cc([N+](=O)[O-])c(O)c([N+](=O)[O-])c1` (stereo unspecified), inactive: 0.923%.
